{"sequences": {"note": "By UniProt entry, the sequences of proteins in these tests, tags left out. Residues count along the entry.", "UniProt P08581, 25-1390": "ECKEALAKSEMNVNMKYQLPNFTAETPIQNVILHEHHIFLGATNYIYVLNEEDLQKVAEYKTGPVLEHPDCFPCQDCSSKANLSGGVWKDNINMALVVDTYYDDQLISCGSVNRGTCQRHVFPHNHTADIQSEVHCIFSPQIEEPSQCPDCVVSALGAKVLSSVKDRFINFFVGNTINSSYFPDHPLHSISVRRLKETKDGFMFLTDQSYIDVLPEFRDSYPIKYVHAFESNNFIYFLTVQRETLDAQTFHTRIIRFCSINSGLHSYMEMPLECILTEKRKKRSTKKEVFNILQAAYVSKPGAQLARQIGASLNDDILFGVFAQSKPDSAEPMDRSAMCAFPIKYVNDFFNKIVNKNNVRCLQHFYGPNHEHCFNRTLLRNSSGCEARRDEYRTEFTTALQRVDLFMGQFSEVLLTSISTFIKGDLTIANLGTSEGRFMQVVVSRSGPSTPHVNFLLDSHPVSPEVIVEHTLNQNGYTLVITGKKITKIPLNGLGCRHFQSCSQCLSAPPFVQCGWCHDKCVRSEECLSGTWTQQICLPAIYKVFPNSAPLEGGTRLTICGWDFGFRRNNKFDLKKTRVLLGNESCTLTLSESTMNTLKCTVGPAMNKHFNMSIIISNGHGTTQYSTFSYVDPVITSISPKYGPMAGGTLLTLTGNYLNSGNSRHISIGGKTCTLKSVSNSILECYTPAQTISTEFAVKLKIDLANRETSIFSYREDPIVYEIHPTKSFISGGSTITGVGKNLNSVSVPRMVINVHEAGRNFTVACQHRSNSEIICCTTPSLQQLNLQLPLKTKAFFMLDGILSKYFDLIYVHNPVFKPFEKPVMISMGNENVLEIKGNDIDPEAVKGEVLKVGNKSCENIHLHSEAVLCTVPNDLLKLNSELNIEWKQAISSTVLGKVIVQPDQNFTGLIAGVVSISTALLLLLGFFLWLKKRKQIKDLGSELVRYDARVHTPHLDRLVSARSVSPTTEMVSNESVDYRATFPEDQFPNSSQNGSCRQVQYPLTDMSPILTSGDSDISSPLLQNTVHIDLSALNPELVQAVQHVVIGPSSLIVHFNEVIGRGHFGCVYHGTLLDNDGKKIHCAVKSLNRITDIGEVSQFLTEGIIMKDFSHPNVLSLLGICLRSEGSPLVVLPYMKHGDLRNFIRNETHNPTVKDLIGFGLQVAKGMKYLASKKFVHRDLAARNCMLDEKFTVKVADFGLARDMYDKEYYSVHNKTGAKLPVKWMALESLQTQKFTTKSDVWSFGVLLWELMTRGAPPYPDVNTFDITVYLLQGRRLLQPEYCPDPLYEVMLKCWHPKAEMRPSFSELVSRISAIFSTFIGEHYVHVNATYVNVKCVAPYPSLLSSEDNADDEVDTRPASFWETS"}, "source": "patent US10028956B2", "about": "“Methods of treating various cancers using an AXL/cMET inhibitor in combination with other agents” (Ignyta, Inc., priority 2013, dated 2018)", "key": {"[1]": {"target": "T1, AXL (Homo sapiens, UniProt P30530)", "T1 sequence (P30530 26-894)": "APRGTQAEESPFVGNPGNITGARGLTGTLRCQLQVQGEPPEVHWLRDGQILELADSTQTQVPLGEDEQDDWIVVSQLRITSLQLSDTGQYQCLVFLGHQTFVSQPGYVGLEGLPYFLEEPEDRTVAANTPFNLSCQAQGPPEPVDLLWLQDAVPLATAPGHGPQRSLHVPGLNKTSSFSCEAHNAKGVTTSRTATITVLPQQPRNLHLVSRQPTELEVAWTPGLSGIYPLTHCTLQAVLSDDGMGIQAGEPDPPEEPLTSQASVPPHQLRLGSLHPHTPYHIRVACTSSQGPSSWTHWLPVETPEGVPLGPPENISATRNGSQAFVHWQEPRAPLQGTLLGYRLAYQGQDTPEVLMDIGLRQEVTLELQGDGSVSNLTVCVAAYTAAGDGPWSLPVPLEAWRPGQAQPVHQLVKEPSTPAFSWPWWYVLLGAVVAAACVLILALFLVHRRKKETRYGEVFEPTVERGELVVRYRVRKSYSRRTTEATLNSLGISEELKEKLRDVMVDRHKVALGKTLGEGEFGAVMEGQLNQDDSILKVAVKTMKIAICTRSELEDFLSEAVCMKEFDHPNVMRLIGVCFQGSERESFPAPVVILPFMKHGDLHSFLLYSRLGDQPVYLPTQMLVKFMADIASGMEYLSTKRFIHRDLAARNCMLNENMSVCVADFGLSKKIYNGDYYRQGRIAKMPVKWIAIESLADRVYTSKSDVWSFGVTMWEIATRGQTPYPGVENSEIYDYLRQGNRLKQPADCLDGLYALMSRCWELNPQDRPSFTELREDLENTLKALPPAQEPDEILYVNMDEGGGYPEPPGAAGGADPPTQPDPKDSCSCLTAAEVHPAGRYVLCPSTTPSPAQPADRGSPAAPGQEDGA", "settings": "from time t0 to tmax"}, "[2]": {"target": "T1, AXL", "test": "Cellular AXL inhibition in AXL-transfected 293GT cells", "type": "cell-based", "settings": "AXL-transfected 293GT cells vs recombinant enzyme"}, "[3]": {"target": "c-Met (Homo sapiens, UniProt P08581)", "settings": "time-dependent inhibition"}}, "data": [{"smiles": "COc1cc2nccc(Oc3ccc(NC(=O)c4cn(C(C)C)c(=O)n(-c5ccc(F)cc5)c4=O)cc3F)c2cc1OC", "note": "[CEP-40783, 3-(4-Fluorophenyl)-1-isopropyl-2,4-dioxo-1,2,3,4-tetrahydropyrimidine-5-carboxylic acid [4-(6,7-dimethoxyquinolin-4-yloxy)-3-fluorophenyl]-amide]", "values": [{"measurement": "fold shift in the IC50 value, AXL", "setting": "[1]", "value": 35, "unit": "fold"}, {"measurement": "fold more active in cells compared to recombinant enzyme", "setting": "[2]", "value": 27, "unit": "fold"}, {"measurement": "fold shift in the IC50, c-Met", "setting": "[3]", "value": 38, "unit": "fold"}]}]}
